Results: ChEMBL document CHEMBL1143566, “Discovery of a potent and selective inhibitor of cyclin-dependent kinase 4/6” (J Med Chem, 2005)

Molecular target: Cyclin-dependent kinase 2/cyclin A (Homo sapiens, UniProt P24941)

| Structure (SMILES) | IC50 |
| --- | --- |
| O=c1c(Br)cc2cnc(Nc3ccccn3)nc2n1C1CCCC1 | > 5 µM |
| O=c1c(CO)cc2cnc(Nc3ccc(N4CCNCC4)cn3)nc2n1C1CCCC1 | > 5 µM |
| O=c1c(F)cc2cnc(Nc3ccc(N4CCNCC4)cn3)nc2n1C1CCCC1 | > 5 µM |
| O=c1ccc2cnc(Nc3ccc(N4CCNCC4)cn3)nc2n1C1CC1 | > 5 µM |
| CC(=O)c1cc2cnc(Nc3ccc(N4CCNCC4)cn3)nc2n(C2CCCC2)c1=O | > 5 µM |
| COCCN(CCOC)c1ccc(Nc2ncc3c(C)c(Br)c(=O)n(C4CCCC4)c3n2)nc1 | > 5 µM |
| CC(=O)c1c(C)c2cnc(Nc3ccc(N4CCCNCC4)cn3)nc2n(C2CCCC2)c1=O | > 5 µM |
| Cc1cc(=O)n(C2CCCC2)c2nc(Nc3ccc(N4CCNCC4)cn3)ncc12 | > 5 µM |
| CC(=O)c1c(C)c2cnc(Nc3ccc(N4CCNC(C)(C)C4)cn3)nc2n(C2CCCC2)c1=O | > 5 µM |
| CCOC(=O)c1cc2cnc(Nc3ccc(N4CCNCC4)cn3)nc2n(C2CCCC2)c1=O | > 5 µM |
| Cc1c(Br)c(=O)n(C2CCCC2)c2nc(Nc3ccc(N4CCN(C)CC4)cn3)ncc12 | > 5 µM |
| CCOCCOc1cc2cnc(Nc3ccc(N4CCNCC4)cn3)nc2n(C2CCCC2)c1=O | > 5 µM |
| CC(=O)c1c(C)c2cnc(Nc3ccc(N4CCOCC4)cn3)nc2n(C2CCCC2)c1=O | > 5 µM |
| Cc1c(Br)c(=O)n(C2CCCC2)c2nc(Nc3ccc(N4CC(C)NC(C)C4)cn3)ncc12 (stereo unspecified) | > 5 µM |
| CCOCc1cc2cnc(Nc3ccc(N4CCNCC4)cn3)nc2n(C2CCCC2)c1=O | > 5 µM |
| Cc1c(Br)c(=O)n(C2CCCC2)c2nc(Nc3ccc(N4CCOCC4)cn3)ncc12 | > 5 µM |
| Cc1c(Br)c(=O)n(C2CCCC2)c2nc(Nc3ccc(N4CCC(O)CC4)cn3)ncc12 | > 5 µM |
| Cc1c(Br)c(=O)n(C2CCCC2)c2nc(Nc3ccc(N4CCNCC4)cn3)ncc12 | > 5 µM |
| CC(=O)c1c(C)c2cnc(Nc3ccc(N4CC(C)NC(C)C4)cn3)nc2n(C2CCCC2)c1=O (stereo unspecified) | > 5 µM |
| CC(=O)c1c(C)c2cnc(Nc3ccc(N4CCN(C)CC4)cn3)nc2n(C2CCCC2)c1=O | > 5 µM |
| CC(=O)c1c(C)c2cnc(Nc3ccccn3)nc2n(C2CCCC2)c1=O | > 5 µM |
| COCCOCc1cc2cnc(Nc3ccc(N4CCNCC4)cn3)nc2n(C2CCCC2)c1=O | > 5 µM |
| CC(C)n1c(=O)ccc2cnc(Nc3ccc(N4CCNCC4)cn3)nc21 | > 5 µM |
| CC(=O)c1c(C)c2cnc(Nc3ccc(N4CCC(N)C4)cn3)nc2n(C2CCCC2)c1=O (stereo unspecified) | > 5 µM |
| CCOCCc1cc2cnc(Nc3ccc(N4CCNCC4)cn3)nc2n(C2CCCC2)c1=O | > 5 µM |
| Cc1c(Br)c(=O)n(C2CCCC2)c2nc(Nc3ccccn3)ncc12 | > 5 µM |
